The list shows a part of the results, in another mix than the full data. Activity calls are given as the source filed them.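 Rule for the calls: active = mean inhibition across valid replicates above about 65% (limit read from the data); inconclusive = mean under the limit, yet half or more replicates past it; inactive = the rest.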
assay: Shh-driven Gli reporter inhibition – luminescence, Shh-LIGHT2 cells, Gli-luciferase, primary screen (AID 2313); conditions: 30 h, stronger effect = higher value;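 note: pathway switched on by Shh-conditioned medium diluted 1 in 25 in low serum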

Q: Which inhibition does the source give for `CN(C(=O)Cc1ccc(Cl)c(Cl)c1)[C@H]1CCCC[C@@H]1N1CCCC1` here?
A: active: 70.2%

From PubChem BioAssay AID2313 (Broad Institute, 2010)
